In US20050049231A1, “Treatment method” (priority 2001, published 2005):

Conditions: baboons; intra-vaginal doses of 0.3, 0.6 and 0.9 mCi; systemic blood samples

SMILES: CCC1(c2ccc(N)cc2)CCC(=O)NC1=O (stereo not shown) [C14-labelled aminoglutethimide, “D,L”-3-“4-Aminophenyl”-3-ethyl-2,6-piperidinedione[Phenyl-14C“U”]]
- blood levels (in words): detectable and there was a dose-response relationship
